Measured values: publication PMC4627693

Target: Cys-Aktide (Biotin-ZZRPRTSCF)
Experiment: cross-linking + pull-down

c-Src tyrosine kinase (recombinant) (from UniProt P00523 1-533) (enzyme)
percent of total c-Src recovered by precipitation: 0.5%
